The record followed here is ChEMBL document CHEMBL1129371, “Bis tertiary amide inhibitors of the HIV-1 protease generated via protein structure-based iterative design” (J Med Chem, 1996).

The target in this test is Human immunodeficiency virus type 1 protease (Human immunodeficiency virus 1, UniProt Q72874). Briefly: Binding affinity against HIV-1 protease.

The term Ki denotes a dissociation constant, usually derived from enzyme kinetics or from competition with a known ligand. `CC(C)(C)N(CCO)C(=O)c1ccccc1CCC(O)Cc1ccccc1C(=O)N(CCO)C(C)(C)C` (stereo unspecified) yielded a Ki of 1100 nM.
